This is an account of results in publication PMC11345830, “Exploration of Hydrazide-Based HDAC8 PROTACs for the Treatment of Hematological Malignancies and Solid Tumors” (Journal of Medicinal Chemistry, 2024).

Holding throughout (assay type): cell-based
Assay [1] has as its system acetyl-α-tubulin (Ac-Tubulin). As to the kind of experiment: Ac-Tubulin level in Jurkat cells, Western blot. To be noted: 6 h. (In western blotting, separated proteins are transferred to a membrane and probed.)
Assay [2] relates to acetyl-SMC3 (Ac-SMC3). As to the kind of experiment: Ac-SMC3 level in Jurkat cells, Western blot. To be noted: 6 h.
Assay [3] has as its system Jurkat cells. As to the kind of experiment: Apoptosis assay (Annexin V-FITC/PI flow cytometry), Jurkat. To be noted: 24 and 48 h. Here is the method:
The cell apoptosis assay was performed using eBioscience Annexin V-FITC/PI Apoptosis Detection Kit (Thermo Fisher Scientific, Carlsbad, CA, USA). Jurkat cells (5 × 10^5) and HCT116 cells (3 × 10^5) were treated with different concentrations of test compounds for 24 or 48 h. Cells were harvested after incubation, washed twice in cold PBS, centrifuged, and resuspended in 1X annexin-binding buffer. According to the manufacturer’s instructions, cells were incubated with Annexin V and Propidium iodide (PI) sequentially. All samples were analyzed by NovoCyte Quanteon Flow Cytometer (Agilent Technologies, CA, USA).
For orientation: Flow cytometry measures light scatter and fluorescence of single cells or particles in a stream.

Assay [4] concerns acetyl-histone H3 (Ac-HH3). Put plainly: Ac-HH3 level in Jurkat cells, Western blot. The note with it: 6 h.
Assay [5] relates to caspase 3/7. Put plainly: Caspase 3/7 activity assay, Jurkat. The note with it: Jurkat cells, 48 h; 6 plus 19 at 5 μM. Here is the method: (§1) Jurkat cells (10000 cells/well) and HCT116 (2000 cells/well) were seeded in white-walled 96-well plates (Greiner bio-one, Alphen a/d Rijn, The Netherlands) in 50 μL complete medium and cultured overnight. Then, 50 μL of compounds were added to the plates and incubated for 48 h. The Caspase-Glo 3/7 Reagent (Promega Corporation, Madison, WI, USA) was equilibrated to room temperature, and 100 μL of the reagent was added to each well. After incubation at room temperature for 1 h, the luminescence was collected using a Synergy H1 plate reader (Biotek, Winooski, VT, USA).

The subject of assay [6] is caspase 3/7. As to the kind of experiment: Caspase 3/7 activity assay, HCT116. The note with it: HCT116 cells, 48 h; 6 plus 19 at 5 μM. The method, then:
as §1

Structures are written as SMILES.

With `O=C(CCCCCCC(=O)Nc1ccccc1)NO` [SAHA, reference compound], the “level of Ac-Tubulin (in words)” value in assay [1] is “only observed in the SAHA-treated group”. For the same compound, the “level of Ac-SMC3 at 1 μM (in words)” value in assay [2] is “neither 1 μM of pan-HDAC inhibitor SAHA nor 1 μM of HDAC8 inhibitor 6 increased the level of Ac-SMC3”. Also, the “induction of apoptosis (in words)” value in assay [3] is on record as “neither Z16 nor SAHA could effectively induce apoptosis”. The “level of Ac-HH3 at 1 μM (in words)” value in assay [4] is “significantly increase”.
`CCCCCCNNC(=O)c1ccc(CNC(=O)CN2CCC(c3ccc(NC4CCC(=O)NC4=O)cc3)CC2)cc1` (stereo not drawn) [Z16, 2-(4-(4-((2,6-Dioxopiperidin-3-yl)amino)phenyl)piperidin-1-yl)-N-(4-(2-hexylhydrazine-1-carbonyl)benzyl)acetamide]: the “caspase 3/7 activity (in words)” value in assay [5] and in assay [6] was “significantly increased the caspase 3/7 activity in a dose-dependent manner” each time.
